Columns and labels:
Assay in all cases: ProImmune REVEAL MHC class II binding assay of long peptides
Conditions in all cases: percentage of the signal of the positive control peptide; positive binding score >=15%
[1] = target: T1, HLA-DR13 (α1*01:01;β1*13:01) (Homo sapiens, UniProt P01903+P01911, A100E/A169T/K41T/L162R/M171V/P40S/Q125H/Q178H/Q39Y/Q99D/R42S/S66N/W38E/Y61H)
T1 construct: purchased ProImmune
Description: (§1) The highly frequent HLA class II alleles HLA-DR1 (α1*01:01;β1*01:01), HLA-DR15 (α1*01:01;β1*15:01), HLA-DR3 (α1*01:01;β1*03:01), HLA-DR4 (α1*01:01;β1*04:01), HLA-DR11 (α1*01:01;β1*11:01), HLA-DR13 (α1*01:01;β1*13:01), and HLA-DR7 (α1*01:01;β1*07:01) were selected. Each peptide was given a score relative to the positive control peptide, which is a known T-cell epitope. The score of the test peptide is reported quantitatively as a percentage of the signal generated by the positive control peptide, and the peptide is indicated as having a putative pass or fail result. Good binders are considered to be those peptides with scores >=15% of the positive control as defined by Proimmune.

By UniProt entry, the sequences of proteins in these tests, tags left out. Where a name states a change or a piece, a line headed by the entry shows the natural chain unless it says otherwise. Residues count along the entry.
UniProt P01903, 26-216: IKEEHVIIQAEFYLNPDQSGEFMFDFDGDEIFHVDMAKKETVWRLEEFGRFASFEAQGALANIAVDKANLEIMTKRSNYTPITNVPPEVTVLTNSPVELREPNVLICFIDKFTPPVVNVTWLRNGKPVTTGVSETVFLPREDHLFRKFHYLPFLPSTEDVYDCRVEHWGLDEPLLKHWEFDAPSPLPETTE
UniProt P01911, 30-227 W38E/Q39Y/P40S/K41T/R42S/Y61H/S66N/Q99D/A100E/Q125H/L162R/A169T/M171V/Q178H: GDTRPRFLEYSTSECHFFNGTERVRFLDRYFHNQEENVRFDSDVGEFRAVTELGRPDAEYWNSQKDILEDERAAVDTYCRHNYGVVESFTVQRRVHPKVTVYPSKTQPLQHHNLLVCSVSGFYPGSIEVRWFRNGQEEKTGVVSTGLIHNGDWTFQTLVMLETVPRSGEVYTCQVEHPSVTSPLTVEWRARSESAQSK

[2] = system: HLA-DR11 (α1*01:01;β1*11:01); set-up: species or system human
Description: as §1

[3] = system: HLA-DP4 (α1*01:03;β1*04:01); set-up: species or system human

Substance | binding score, HLA-DR13 (α1*01:01;β1*13:01) [1] [%] | binding score, HLA-DR11 (α1*01:01;β1*11:01) [2] [%] | binding score, HLA-DP4 (α1*01:03;β1*04:01) [3] [%]
NP877: unconjugated HBV long peptide, core 860-890 | 16.34 |  | 
NP151: unconjugated HBV long peptide, polymerase region 134-168 (PEHVVNHYFQTRHYLHTLWKAGILYKRETTRSASF; HBV CONSENSUS SEQUENCE) |  | 49.16 | 
NP113: unconjugated HBV long peptide, polymerase region 96-130 of virtual HBV proteome (VGPLTVNEKRRLKLIMPARFYPNVTKYLPLDKGIK; HBV CONSENSUS SEQUENCE) |  | 52.86 | 
NP376: unconjugated HBV long peptide, polymerase 359-398 (C to S substitution at 393) (KLHLYSHPIILGFRKIPMGVGLSPFLLAQFTSAISSVVRR; HBV CONSENSUS SEQUENCE) |  | 31.38 | 53.66
NP277(K): unconjugated HBV long peptide, polymerase 260-293 + KKK (RVSWPKFAVPNLQSLTNLLSSNLSWLSLDVSAAFYHKKK; HBV CONSENSUS SEQUENCE) |  |  | 36.19

Reference: US11918645B2, “Vaccines against hepatitis B virus” (priority 2012, dated 2024)
